2 compounds from patent US20240383924A1, “BENZOPYRIMIDINE COMPOUNDS AND USE THEREOF” (priority 2022, published 2024) can be followed below.

In data set [1] the test system is phospho-ERK in GP2D cells. Nature of the data set: Inhibition of phospho-ERK in GP2D cells (Odyssey in-cell imaging). To be noted: read-out: Inhibitory effects on intracellular phospho-ERK IC50, 1 hour compound, EGF stimulation. The method, then: Assay example 3. Inhibitory effect of compounds on phospho-ERK in GP2D cells
In this assay, the inhibitory effect of the assayed compounds on the phosphorylation of ERK protein downstream of the KRAS […] signaling pathway in human colon cancer GP2D cells was analyzed.
2. Reagents, consumables and instruments
3.Assay process 1. Cell culture
1) GP2D cells were cultured in a cell culture 75 flask at 37° C., 5% CO2, and the medium was DMEM medium (added with 10% FBS and 1% P/S).
2) After cultivation for 2 days, the medium was removed and the sterile PBS buffer was used to wash once.
3) 3 mL of trypsin was added and the cells were digested in a 37° C. incubator for 2 to 3 minutes until cells fell off.
4) 9 mL of fresh culture medium was added to neutralize the digestion; the cells were aspirated into a centrifuge tube and centrifuged at 1000 rpm at room temperature for 5 minutes.
5) The supernatant was removed, and 3 mL of fresh culture medium was added to resuspend the cells; the cells were counted by a cell counter.
1) 7000 cells per well were plated in a 384-cell culture plate with 40 μL of culture medium, and cultured overnight in a 37° C. and 5% CO2 incubator.
2) The Echo655 instrument was used to add 40 nL of serially diluted compounds (the initial concentration of the compound was 1000 nM, and the compound was serially diluted 3-fold. […]

Data set [2] can be described thus: Pharmacokinetic study in vivo in mice. Set-up: species or system mouse. To be noted: male C57BL/6J mice; for Cmax: read-out: peak concentration Cmax.
In data set [3] the test system is KRAS^G12D mutated AsPC-1 cells. Put plainly: Anti-cell proliferation in tumor cell line AsPC-1 (CellTiter-Glo 3D). To be noted: read-out: Anti-proliferation Activity against KRAS^G12D Mutated AsPC-1 Cells IC50; AsPC-1, 120 hours, 3D culture. The source says:
Assay example 2. Anti-cell proliferation effects of compounds in tumor cell line AsPC-1 1. Research purpose
In this assay, the inhibitory effects of compounds on cell proliferation were studied by detecting the effects of compounds on the in vitro cell activity in the tumor cell line AsPC-1.
Ultra Low Cluster-96 well plate (Corning-7007)
Greiner CELLSTAR 96-well plate (#655090)
Promega CellTiter-Glo 3D Luminescence Cell Viability Detection Kit (Promega-G9683)
2104-10 En Vision Plate Reader, PerkinElmer
RPMI 1640, DMEM, PBS (phosphate buffered solution), FBS (fetal bovine serum), Antibiotic-antimycotic, L-glutamine, DMSO (dimethyl sulfoxide)
3. Assay methods and steps Cell culture
The tumor cell line was cultured in a 37° C., 5% CO2 incubator according to the culture conditions indicated in the culture method. […]
Cells were stained with trypan blue and viable cells were counted. […]
CellTiter-Glo luminescence assay for cell viability detection (day 5)
The following steps were performed according to the instructions of the Promega CellTiter-Glo 3D Luminescence Cell Viability Dectection Kit (Promega #G9683). […]
The solution in the ULA culture plate was then transferred to a black bottom culture plate (#655090) and left at room temperature for 25 minutes to stabilize the luminescence signal.
Luminescence signals were detected with a 2104 EnVision plate reader. […]
Background: In ATP-based viability assays light output follows the ATP content of the culture.

[4] abbreviates: intravenous administration, dose 1.74-1.94 mg/kg.
The mark [5] stands for this setting: oral administration, dose 28.2-51.0 mg/kg.

`C#Cc1c(F)ccc2cc(N)cc(-c3c(F)cc4c(N5CC6C=CC(C5)N6)nc(OCC56CCCN5CC(=C)C6)nc4c3F)c12` (single isomer, unassigned): the IC50 in data set [1] amounted to 120 pM. Besides, in data set [2] (setting [4]), the “apparent volume of distribution Vdss” value turned out to be 94.2 L/kg, the “area under plasma concentration-time curve AUC0-last” value (“area” for short) stood at 0.405 µM·h, the “clearance rate CL” value stood at 106 mL/min/kg and the “half-life T1/2” value was found to be 20.3 h. Also, in data set [2] (setting [5]), the “area” value is 3.146 µM·h, the “bioavailability F” value was found to be 31.0%, the “peak time Tmax” value amounted to 0.25 h and the Cmax turned out to be 1960 nM.

With `C#Cc1c(F)ccc2cc(N)cc(-c3c(F)cc4c(N5CC6C=CC(C5)N6)nc(OCC56CCCN5CC(=CF)C6)nc4c3F)c12` (single isomer, unassigned), in data set [3], the IC50 turned out to be 6500 pM. Further, in data set [1], the IC50 was determined as 69 pM. In data set [2] (setting [4]), the “apparent volume of distribution Vdss” value is on record as 51.4 L/kg, the “area” value was determined as 0.488 µM·h, the “clearance rate CL” value stood at 95.7 mL/min/kg and the “half-life T1/2” value is given as 10.7 h. Further, in data set [2] (setting [5]), the “area” value amounted to 2.409 µM·h, the “bioavailability F” value was determined as 19.1%, the “peak time Tmax” value is given as 0.25 h and the Cmax turned out to be 1380 nM.
